# High-throughput results from PubChem.
# Cneo AK release = Cryptococcus neoformans cell lysis inducers, primary screen, AK release luminescence, single concentration | C. neoformans lysis, adenylate kinase release luminescence, 4 h; normalised: neutral wells 0, clomiphene wells 100 | lysis activity, % at 15 µM | 0.2% of 360,000 active | AID 651654, 2012;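 active = mean lysis activity across replicates of at least 80%, whatever share of replicates individually reach that level; inactive = mean lysis activity below 80%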
#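 read-out = cell lysis signal | test system = log-phase Cryptococcus neoformans yeast cells | input = cells at 5 × 10^6 per mL | medium = fresh YPD growth medium | signal = luminescent adenylate kinase detection reagent | timing = 4 h at 37 °C static, read 1 h later | dosing = single dose | controls = Clomiphene as positive lysis control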
# E-sel inducer = E-selectin induction in HUVECs, primary screen, imaging, HUVEC, immunofluorescence imaging, single point | P16581 | normalized: neutral wells 0, TNF-alpha wells 100 | activation, % at 7.58 µM | 0.37% of 260,000 active;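 active = mean E-selectin-positive cell signal at least 10% of the positive control, reached in at least 60% of replicates, without over 20% cell loss; inconclusive = no rule given, readout overlaps actives, possibly toxicity-flagged; inactive = the rest, including those meeting only one limit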
#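 Test system: HUVEC; input: 3,000 HUVEC/well; measured by: immunofluorescence imaging; read-out: % PE-positive cells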
# UUG fidelity = modulators of start codon recognition fidelity in yeast; S. cerevisiae UUG-firefly luciferase reporter, luminescence/redox ratio; AID 602363; 350,000 tested, 0.13% active; activity score, % at 18.7 µM;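 active = replicate mean at a twofold rise or more, about +100% in these data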;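 also: firefly luciferase made from a UUG start codon reports start codon fidelity; reporter light over untreated wells divided by growth signal over untreated wells; some hits fall short of that in this replicate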
# DENV2 CPE = inhibitors of DENV2 cytopathic effect, primary screen, cell-based, plate reader, single concentration; CPE inhibition, % at 9.99 µM; 1.7% of 350,000 active; DENV2-infected cells, cytopathic effect rescue; in the data active = CPE inhibition above about 20%, passing the limit was not always enough; inconclusive = no clear call, values can overlap the other calls; tested in BHK-21 cells;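 also: 0% = median of neutral control wells and 100% = median of positive control wells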
# Numbers without * were called inactive; ? = inconclusive; . = not tested or not shown; ! = a repeat was not active. Most compounds without a hit are left out; they make up all but 1.8% or so of the library.
# Codes – A = Cneo AK release; B = E-sel inducer; C = UUG fidelity; D = DENV2 CPE
1) C[C@@H]1CN([C@@H](C)CO)C(=O)c2cc(NC(=O)CCCCCC(=O)Nc3ccccc3N)ccc2O[C@H]1CN(C)S(=O)(=O)c1ccccc1
  A: . | B: 0 | C: . | D: 8

2) COc1ccc(NC(=O)Nc2ccc3c(c2)C(=O)N([C@@H](C)CO)C[C@H](C)[C@H](CN(C)S(=O)(=O)c2ccc(OC)cc2)O3)cc1
  A: -1 | B: -1 | C: -14 | D: -5

3) C[C@H](CO)N1C[C@H](C)[C@@H](CN(C)S(C)(=O)=O)Oc2ccc(NC(=O)Nc3ccccc3)cc2C1=O
  A: -3 | B: 0 | C: -8 | D: 88*!

4) COc1ccc(NC(=O)Nc2ccc3c(c2)C(=O)N([C@H](C)CO)C[C@H](C)[C@@H](CN(C)S(C)(=O)=O)O3)cc1
  A: -4 | B: 0 | C: 8 | D: 26*!

5) C[C@H](CO)N1C[C@H](C)[C@H](CN(C)S(C)(=O)=O)Oc2ccc(NC(=O)Nc3ccccc3)cc2C1=O
  A: 0 | B: -1 | C: 7 | D: -1

6) COc1ccc(NC(=O)Nc2ccc3c(c2)C(=O)N([C@H](C)CO)C[C@@H](C)[C@@H](CN(C)S(=O)(=O)c2ccc(F)cc2)O3)cc1
  A: 1 | B: 40* | C: 4 | D: -6

7) COc1ccc(NC(=O)Nc2ccc3c(c2)C(=O)N([C@H](C)CO)C[C@H](C)[C@@H](CN(C)S(=O)(=O)c2ccc(OC)cc2)O3)cc1
  A: 0 | B: 1 | C: -24 | D: 26*!

8) COc1ccc(NC(=O)Nc2ccc3c(c2)C(=O)N([C@H](C)CO)C[C@H](C)[C@H](CN(C)S(=O)(=O)c2ccc(F)cc2)O3)cc1
  A: 10 | B: 7 | C: 0 | D: -1

9) CNC[C@@H]1OCCCC[C@@H](C)Oc2ccc(NS(C)(=O)=O)cc2C(=O)N([C@@H](C)CO)C[C@@H]1C
  A: 0 | B: 2 | C: -2 | D: -2

10) C[C@H]1CN([C@@H](C)CO)C(=O)c2cc(C#CCc3ccccc3)cnc2O[C@@H]1CN(C)Cc1ccc(C(=O)O)cc1
  A: -1 | B: 0 | C: . | D: 15

11) O=C(C[C@@H]1CC[C@H](NC(=O)C2CC2)[C@H](CO)O1)NCc1ccncc1
  A: -2 | B: 0 | C: -10 | D: 5

12) CCCNC(=O)N1C[C@@H]2[C@H](c3ccccc31)[C@@H](CO)N2Cc1ccccc1F
  A: 2 | B: 0 | C: -20 | D: -4

13) COc1ccc(CN(CCC(c2ccccc2)C2CCOC(C)(C)C2)C(C)=O)cc1 (centres undefined)
  A: -2 | B: -1 | C: 20 | D: 102*

14) CC(C)C[C@H](NC(=O)c1nc[nH]c1C(=O)NC1CCN(C(=O)OC(C)(C)C)CC1)C(=O)OC(C)(C)C
  A: 3 | B: 0 | C: -5 | D: 50*

15) CC(C)(C)OC(=O)NCc1ccc(CNC(=O)c2[nH]cnc2C(=O)NC2CCN(C(=O)OC(C)(C)C)CC2)cc1
  A: 0 | B: . | C: 22 | D: .

16) CC(C)(C)OC(=O)[C@H](Cc1ccccc1)NC(=O)c1nc[nH]c1C(=O)NCC(=O)OCc1ccccc1
  A: -2 | B: . | C: 13 | D: -7

17) CC(C)C[C@H](NC(=O)c1nc[nH]c1C(=O)NC1CCN(C(=O)OC(C)(C)C)CC1)C(=O)OCc1ccccc1
  A: -1 | B: . | C: -11 | D: 6

18) CC(C)(C)OC(=O)N1CCC(NC(=O)c2nc[nH]c2C(=O)NCc2ccccc2)CC1
  A: 0 | B: 2 | C: -9 | D: 34*

19) CN(Cc1ccccc1)C(=O)c1nc[nH]c1C(=O)N1CCN(C(=O)OC(C)(C)C)CC1
  A: 1 | B: 0 | C: 1 | D: 42*

20) CC(C)(C)OC(=O)CNC(=O)c1[nH]cnc1C(=O)N[C@@H](Cc1ccccc1)C(=O)OC(C)(C)C
  A: 0 | B: 0 | C: 2 | D: 54*

21) CCCNC(=O)N1C[C@H](C)[C@H](OC)CN(C)C(=O)c2cc(NC(=O)C3CCC3)ccc2OC[C@@H]1C
  A: . | B: 0 | C: . | D: .

22) C[C@H]1CN([C@@H](C)CO)C(=O)c2cc(C#CC3CC3)cnc2O[C@@H]1CN(C)C(=O)c1ccccc1
  A: 5 | B: 0 | C: 2 | D: 1

23) O=C(C[C@@H]1C=C[C@@H](NC(=O)CC2CC2)[C@@H](CO)O1)NCc1ccc(-c2ccccc2)cc1
  A: 0 | B: 0 | C: -2 | D: -3

24) Cc1ccccc1-c1cnc2c(c1)C(=O)N([C@@H](C)CO)C[C@@H](C)[C@@H](CN(C)C(=O)CN(C)C)O2
  A: -11 | B: 0 | C: -3 | D: 13

25) CC(C)C#Cc1ccc2c(c1)O[C@H](CN(C)C)[C@@H](C)CN([C@H](C)CO)S2(=O)=O
  A: 4 | B: 0 | C: 0 | D: -3

# Limited to E-sel inducer and DENV2 CPE (4 entries from above):
cpd | Compound | E-sel inducer | DENV2 CPE
14 | CC(C)C[C@H](NC(=O)c1nc[nH]c1C(=O)NC1CCN(C(=O)OC(C)(C)C)CC1)C(=O)OC(C)(C)C | 0 | 50*
9 | CNC[C@@H]1OCCCC[C@@H](C)Oc2ccc(NS(C)(=O)=O)cc2C(=O)N([C@@H](C)CO)C[C@@H]1C | 2 | -2
17 | CC(C)C[C@H](NC(=O)c1nc[nH]c1C(=O)NC1CCN(C(=O)OC(C)(C)C)CC1)C(=O)OCc1ccccc1 | . | 6
3 | C[C@H](CO)N1C[C@H](C)[C@@H](CN(C)S(C)(=O)=O)Oc2ccc(NC(=O)Nc3ccccc3)cc2C1=O | 0 | 88*!

# Other entries
(26) CNC(=O)C[C@H]1CC[C@H]2[C@@H](COc3ccc(NC(=O)c4ccccc4Cl)cc3C(=O)N2C)O1
(27) CC(C)(C)OC(=O)NCc1ccc(CNC(=O)c2nc[nH]c2C(=O)N2CCc3ccccc3C2)cc1
(28) O=C(C1CCOCC1)N1C[C@@H]2[C@H](c3ccccc31)[C@@H](CO)N2C(=O)Nc1cccc(F)c1
(29) O=C(c1ccccc1F)N1CCC2CC1c1cc(N3CCCCC3)ccc12 (centres undefined)
(30) COc1ccc2ccccc2c1-c1c(OC)ccc2ccccc12
(31) CC(=O)Nc1ccc2c(c1)C(=O)N(C)[C@@H]1CC[C@H](CC(=O)NCc3ccccc3)O[C@@H]1CO2
(32) C[C@@H]1CCCCO[C@H](CN(C)C)[C@@H](C)CN([C@H](C)CO)C(=O)c2cc(NC(=O)c3ccncc3)ccc2O1
(33) C[C@@H]1CN([C@H](C)CO)C(=O)c2cc(NC(=O)c3ccncc3)ccc2O[C@@H](C)CCCCO[C@H]1CN(C)C
compound no.,26,27,28,29,30,31,32,33
Cneo AK release,-1,0,-1,-2,-4,3,-3,-6
E-sel inducer,.,0,0,.,.,0,1,0
UUG fidelity,-1,4,-2,3,-5,-3,-6,9
DENV2 CPE,?,60*,-11,42*,26*,-11,-13,85*

(34) C[C@H]1CCCCO[C@@H](CN(C)C)[C@@H](C)CN([C@@H](C)CO)C(=O)c2cc(NC(=O)c3ccncc3)ccc2O1
(35) C[C@@H]1CCCCO[C@H](CN(C)C)[C@H](C)CN([C@H](C)CO)C(=O)c2cc(NC(=O)c3ccncc3)ccc2O1
(36) COCC(=O)N1[C@H](CO)[C@@H](c2ccccc2)C12CN(C(=O)c1ccccc1)C2
(37) CNC(=O)C[C@@H]1CC[C@H]2[C@H](COc3ccc(NC(=O)Nc4ccccc4F)cc3C(=O)N2C)O1
(38) CC1CCCCN1Cc1c(O)ccc2c(=O)c(-c3ccc(Cl)cc3)coc12 (centres undefined)
(39) CC1CCCCN1Cc1c(O)ccc2c(=O)c(-c3ccc(Br)cc3)coc12 (centres undefined)
(40) O=C(Nc1ccc(F)cc1)C(c1cccc(F)c1)N1CCN(C(=O)c2ccco2)CC1 (centres undefined)
(41) CC(C)c1ccc(NC(=O)C(c2ccccc2)N2CCN(C(=O)c3ccco3)CC2)cc1 (centres undefined)
(42) Cc1ccc(NC(=O)N2CCN(C(=O)c3ccco3)CC2)cc1Cl
compound no.,34,35,36,37,38,39,40,41,42
Cneo AK release,-2,-1,.,0,-1,0,.,-2,0
E-sel inducer,0,0,0,0,.,40*,0,.,0
UUG fidelity,3,3,.,3,-11,-11,.,1,-8
DENV2 CPE,12,34*,-3,?,2,-4,47*,.,38*

# Quoted from above: compounds 34 to 35
(34) C[C@H]1CCCCO[C@@H](CN(C)C)[C@@H](C)CN([C@@H](C)CO)C(=O)c2cc(NC(=O)c3ccncc3)ccc2O1
(35) C[C@@H]1CCCCO[C@H](CN(C)C)[C@H](C)CN([C@H](C)CO)C(=O)c2cc(NC(=O)c3ccncc3)ccc2O1
compound no.,34,35
Cneo AK release,-2,-1
E-sel inducer,0,0
UUG fidelity,3,3
DENV2 CPE,12,34*
